Earlier results as cited in PubChem BioAssay AID977610.
The hits were mostly taken out for another list; the other results follow. Active and inactive are the calls of the source. No cut-off is given here; in the data, nearly all actives have Ki up to about 18000 µM.

Test: PubChem AID 977610
Details: PDB protein-ligand complexes, literature Ki; protein: Glycogen Phosphorylase b from Oryctolagus cuniculus, PDB entry 2qnb unless noted

Ki, active:
O=C(NC(=O)c1ccccc1)N[C@@H]1O[C@H](CO)[C@@H](O)[C@H](O)[C@H]1O 4.6 µM
CC(C)C[C@H](NC(=O)[C@H](CCCN=C(N)N)NC(=O)[C@@H](NC(=O)[C@H](CC(=O)O)NC(=O)[C@H](CCC(N)=O)NC(=O)[C@H](Cc1c[nH]c2ccccc12)NC(=O)[C@H](CCCN=C(N)N)NC(=O)[C@H](CO)NC(=O)[C@H](CC(N)=O)NC(=O)[C@H](C)N)[C@@H](C)O)C(=O)O 16.2 µM [protein: CFTR Associated Ligand (CAL) E317A PDZ domain, PDB entry 4k78]
CC[C@H](C)[C@H](NC(=O)[C@@H](NC(=O)[C@H](CO)NC(=O)[C@@H](NC(=O)[C@@H]1CCCN1C(=O)[C@H](C)NC(=O)[C@H](CCCN=C(N)N)NC(=O)[C@H](CO)NC(=O)[C@H](CC(N)=O)NC(=O)[C@H](C)N)[C@@H](C)O)[C@@H](C)CC)C(=O)O 275 µM [protein: CFTR Associated Ligand (CAL) PDZ domain, PDB entry 4joe]
